Measured values published in patent publication US20230406901A1 (JHM BIOPHARMACEUTICAL HANGZHOU, published 2023).

Chains of the proteins cited; added tags and fusions are not shown. Residues count along the entry.
UniProt P55899, 24-297 limits assumed, chain 1 of 2: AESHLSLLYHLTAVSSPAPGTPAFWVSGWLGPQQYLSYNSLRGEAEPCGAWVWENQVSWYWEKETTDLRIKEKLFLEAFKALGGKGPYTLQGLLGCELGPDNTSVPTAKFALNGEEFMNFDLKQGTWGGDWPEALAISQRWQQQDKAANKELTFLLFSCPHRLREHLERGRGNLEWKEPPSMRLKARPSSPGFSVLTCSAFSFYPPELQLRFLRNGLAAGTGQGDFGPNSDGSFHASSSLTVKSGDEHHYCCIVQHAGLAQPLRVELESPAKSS

Biological target: T1, human FcRn (human, UniProt P55899, in part; P61769, in part)
T1 construct: also called Fc receptor (FcRn)
Assay: SPR, CM5 chip, ligand coupled to chip, FcRn as analyte 46.875-6000 nM, pH 6.0, equilibrium fit

Kd: 2560 nM
B1: natural human IgG4 Fc (other, UniProt P01861-1 99-327, looked up)
chain: ESKYGPPCPSCPAPEFLGGPSVFLFPPKPKDTLMISRTPEVTCVVVDVSQEDPEVQFNWYVDGVEVHNAKTKPREEQFNSTYRVVSVLTVLHQDWLNGKEYKCKVSNKGLPSSIEKTISKAKGQPREPQVYTLPPSQEEMTKNQVSLTCLVKGFYPSDIAVEWESNGQPENNYKTTPPVLDSDGSFFLYSRLTVDKSRWQEGNVFSCSVMHEALHNHYTQKSLSLSLGK
notes: domain: Fc
